Results published in patent publication US20240067715A1 (CIRCLE33, published 2024).

Amino acid sequences for entries named in this document (tags omitted). Residues count along the entry.
UniProt P01375, 77-233 limits assumed: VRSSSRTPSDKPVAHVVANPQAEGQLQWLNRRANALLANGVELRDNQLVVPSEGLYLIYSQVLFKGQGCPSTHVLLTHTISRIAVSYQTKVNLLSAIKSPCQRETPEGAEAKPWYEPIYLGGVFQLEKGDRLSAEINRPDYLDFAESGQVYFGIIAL

Target: T1, recombinant human tumor necrosis factor (Cell Sciences, cat #CRT100C) (human, UniProt P01375 77-233)
T1 construct: Coated on ELISA plates; also the immunogen; also called TNF; rhTNF
Experiment: ELISA on rhTNF-coated plates, pancreatin digest samples

B1: infliximab (recombinant human-mouse chimeric antibody specific for human TNF) (antibody, V domains shown)
VH: EVKLEESGGGLVQPGGSMKLSCVASGFIFSNHWMNWVRQSPEKGLEWVAEIRSKSINSATHYAESVKGRFTISRDDSKSAVYLQMTDLRTEDTGVYYCSRNYYGSTYDYWGQGTTLTVSS
VL: DILLTQSPAILSVSPGERVSFSCRASQFVGSSIHWYQQRTNGSPRLLIKYASESMSGIPSRFSGSGSGTDFTLSINTVESEDIADYYCQQSHSWPFTFGSGTNLEVKR
notes: also called Remicade
B1: binds.
